Among the data in PubChem BioAssay AID1385 (PCMD, 2008) are inhibition values, retold here.

By UniProt entry, the sequences of proteins in these tests, tags left out.
UniProt Q06609, whole entry: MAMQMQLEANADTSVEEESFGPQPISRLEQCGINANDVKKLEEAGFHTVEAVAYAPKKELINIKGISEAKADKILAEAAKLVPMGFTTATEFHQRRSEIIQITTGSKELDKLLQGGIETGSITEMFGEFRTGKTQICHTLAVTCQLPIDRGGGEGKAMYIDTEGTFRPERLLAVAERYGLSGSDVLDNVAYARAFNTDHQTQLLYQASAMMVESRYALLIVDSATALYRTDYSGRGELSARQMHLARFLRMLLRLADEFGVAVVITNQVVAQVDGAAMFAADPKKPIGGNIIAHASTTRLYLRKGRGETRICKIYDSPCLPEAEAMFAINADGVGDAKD

Each structure is given as a SMILES string. The entries are a selection whose mix differs from that of the whole data set. The source made the active and inactive calls.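 Rule for the calls: active = inhibition above 40% at the single screening dose; inactive = the rest.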

The experiment has as its target DNA repair protein RAD51 homolog 1 (Homo sapiens) (UniProt Q06609). Briefly: human RAD51 strand exchange inhibitors, primary screen, biochemical, fluorescence (AID 1385).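 Note: 0% = DMSO control wells and 100% = blanks with heterologous ssDNA.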 Particulars: hRad51 DNA strand exchange, fluorescence dequenching; at 10 µM; hits give high values.
One may read the inhibition as the drop in the measured response relative to a control, in per cent. For the compound `CP(=O)(Nc1ccccc1Br)Oc1ccccc1` (stereo unspecified), the inhibition is inactive: 14.2%.
